This is an account of results in patent US20050130909A1 (priority 2002, published 2005).

SMILES strings stand for the structures.

The experiment has as its system N,N′-diacetyl-Lys-D-Ala-D-Ala. The experiment can be described thus: ITC of binding to tri-peptide cell-wall analog, with and without HSA. Conditions: 25 ° C.

Consider `CN[C@H]1C(=O)N[C@@H]2Cc3ccc(cc3)Oc3cc4cc(c3O[C@@H]3O[C@H](C(=O)O)[C@@H](O)[C@H](O)[C@H]3NC(=O)CCCCCCCCC(C)C)Oc3ccc(cc3Cl)[C@@H](O)[C@@H]3NC(=O)[C@H](NC(=O)[C@@H]4NC(=O)[C@@H](NC2=O)c2cc(cc(O)c2Cl)Oc2cc1ccc2O)c1ccc(O)c(c1)-c1c(O[C@H]2O[C@H](CO)[C@@H](O)[C@H](O)[C@@H]2O)cc(O)cc1[C@@H](C(=O)NCCCN(C)C)NC3=O` [Dalbavancin], for which the Kass turned out to be 118000 M⁻¹ (with HSA 13.6 μM) and 27600 M⁻¹ (with HSA 80.7 μM). Further, under “with HSA 80.7 μM, read-out: Kdiss”, the Kd turned out to be 36.2 µM.
